According to patent US10647719B2, “Bicyclic compounds as dual ATX/CA inhibitors” (Hoffmann-La Roche Inc., priority 2015, dated 2020):

Target: human ATX (Homo sapiens (Human), UniProt Q13822)
Assay: Human ATX enzyme inhibition assay (fluorescence quenching, MR121 substrate)
Type: biochemical
Details: human His-tagged ATX 30 nM, MR121 substrate 1 μM, 30° C.
Experimental: Human ATX Enzyme Inhibition Assay
ATX inhibition was measured by a fluorescence quenching assay using a specifically labeled substrate analogue (MR121 substrate). To obtain this MR121 substrate, BOC and TBS protected 6-amino-hexanoic acid (R)-3-({2-[3-(2-{2-[2-(2-amino-ethoxy)-ethoxy]-ethoxy}-ethoxy)-propionylamino]-ethoxy}-hydroxy-phosphoryloxy)-2-hydroxy-propyl ester (Ferguson et al., Org Lett 2006, 8 (10), 2023) was labeled with MR121 fluorophore (CAS 185308-24-1, 1-(3-carboxypropyl)-11-ethyl-1,2,3,4,8,9,10,11-octahydro-dipyrido[3,2-b:2′,3′-i]phenoxazin-13-ium) on the free amine of the ethanolamine side and then, after deprotection, subsequently with tryptophan on the side of the aminohexanoic acid.
Assay working solutions were made as follows:
Assay buffer (50 mM Tris-HCl, 140 mM NaCl, 5 mM KCl, 1 mM CaCl2, 1 mM MgCl2, 0.01% Triton-X-100, pH 8.0;
ATX solution: ATX (human His-tagged) stock solution (1.08 mg/mL in 20 mM bicine, pH 8.5, 0.15 M NaCl, 10% glycerol, 0.3% CHAPS, 0.02% NaN3), diluted to 1.4-2.5× final concentration in assay buffer;
MR121 substrate solution: MR121 substrate stock solution (800 μM MR121 substrate in DMSO), diluted to 2-5× final concentration in assay buffer.
Test compounds (10 mM stock in DMSO, 8 μL) were obtained in 384 well sample plates (Corning Costar #3655) and diluted with 8 μL DMSO. […]

Row | IC50 [nM] | Structure (SMILES)
1 | 3 | CC(C)(C)C(=O)Nc1cc(C#N)cnc1COC(=O)N1CC2=C(C1)CN(C(=O)c1ccc(S(N)(=O)=O)cc1F)C2 [Example 1.24, [5-cyano-3-(2,2-dimethylpropanoylamino)pyridin-2-yl]methyl 2-(2-fluoro-4-sulfamoylbenzoyl)-1,3,4,6-tetrahydropyrrolo[3,4-c]pyrrole-5-carboxylate]
2 | 3 | CC(C)(C)C(=O)Nc1cc(C#N)cnc1COC(=O)N1CC2=C(C1)CN(C(=O)c1c(F)cc(S(N)(=O)=O)cc1F)C2 [Example 1.25, [5-cyano-3-(2,2-dimethylpropanoylamino)pyridin-2-yl]methyl 2-(2,6-difluoro-4-sulfamoylbenzoyl)-1,3,4,6-tetrahydropyrrolo[3,4-c]pyrrole-5-carboxylate]
